Laboratory results reported in publication PMC5569017, “Development of a novel immunoassay to detect interactions with the transactivation domain of p53: application to screening of new drugs” (Scientific Reports, 2017).

Amino acid sequences for entries named in this document (tags omitted).
UniProt Q00987, whole entry: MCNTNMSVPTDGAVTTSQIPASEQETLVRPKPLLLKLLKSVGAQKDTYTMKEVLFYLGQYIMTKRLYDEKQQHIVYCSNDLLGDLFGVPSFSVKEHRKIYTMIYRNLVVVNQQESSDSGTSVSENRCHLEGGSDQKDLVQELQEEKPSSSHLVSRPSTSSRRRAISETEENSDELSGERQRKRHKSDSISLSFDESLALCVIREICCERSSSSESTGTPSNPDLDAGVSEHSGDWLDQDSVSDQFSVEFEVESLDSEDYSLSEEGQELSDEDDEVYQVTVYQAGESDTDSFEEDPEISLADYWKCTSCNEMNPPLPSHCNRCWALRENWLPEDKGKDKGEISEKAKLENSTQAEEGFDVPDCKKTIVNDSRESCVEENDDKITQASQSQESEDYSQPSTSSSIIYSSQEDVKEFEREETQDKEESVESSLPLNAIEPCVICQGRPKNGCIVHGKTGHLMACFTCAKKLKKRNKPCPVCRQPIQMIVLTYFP

Target: T1, p53-MDM2 interaction (Homo sapiens, UniProt Q00987)
T1 construct: made in house; host or cells: MDM2-GST: Escherichia coli BL21 (DE3), crude extract; p53-His: HEK293T cells transfected with pEnter-p53, crude lysate
Assay: AlphaLISA inhibitor screening assay, p53-MDM2 (cellular extracts with p53-His and MDM2-GST)
Type: biochemical
Conditions: serial dilutions starting with 20 μM, 33.3 μg/well MDM2-GST extract, Fig. 4

COc1ccc(C2=N[C@@H](c3ccc(Cl)cc3)[C@@H](c3ccc(Cl)cc3)N2C(=O)N2CCNC(=O)C2)c(OC(C)C)c1 [Nutlin-3a]
course of AlphaLISA response signal with increasing inhibitor dose: continued to rise rapidly
